Experiment: Selectivity index, ratio of IC50 for EZH2 (unknown origin) to IC50 for human recombinant NSD2 (941 to 1240 residues)

A Ratio IC50 of 4 was found for `CC#CC(=O)NC12CC(NC3=C(Cl)C(=O)c4cccnc4C3=O)(C1)C2` in this work.
